# Laboratory results published in paper PMC7452071 (Acta Pharmaceutica Sinica. B, 2019).
# Tested on: HCT116 cells
# Assay: Flow cytometry assay of cell apoptosis
# Format: cell-based, human
# Conditions: 48 h
smiles,measurement,setting,value
"O=C(CCCCCCC(=O)Nc1ccccc1)NO [Compound 1, vorinostat, reference compound]",Percentage of apoptotic cells,"HCT116, 0.5 μmol/L",18.3%
same,Percentage of apoptotic cells,"HCT116, 1 μmol/L",39.8%
same,Percentage of apoptotic cells,"HCT116, 5 μmol/L",71.4%
